# Yeast mating assay 1: variants of the scFv Ab-14

Source: Engelhart et al. 2022 (doi:10.1038/s41597-022-01779-4), MIT Lincoln Laboratory and A-Alpha Bio; data file from the FLAb repository.

Target: peptide PDVDLGDISGINAS, taken from heptad repeat 2 (HR2) of SARS-CoV-2 spike.

Each scFv is VH, the linker GGGGSGGGGSGGGGS, VL, as in the parent Ab-14, and differs from it in the CDRs of the light chain only.
VH: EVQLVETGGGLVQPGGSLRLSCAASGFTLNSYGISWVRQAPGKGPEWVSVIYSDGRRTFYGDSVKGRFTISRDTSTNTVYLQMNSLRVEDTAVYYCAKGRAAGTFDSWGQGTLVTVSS
VL: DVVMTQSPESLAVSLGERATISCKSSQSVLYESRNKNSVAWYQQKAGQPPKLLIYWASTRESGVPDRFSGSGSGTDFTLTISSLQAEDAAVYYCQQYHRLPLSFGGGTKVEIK

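Phage display of a naive human antibody library on the peptide gave the parent. Variants in AAYL50 differ from the parent at up to three CDR positions; double and triple changes were sampled at random. In AlphaSeq, yeast of one mating type display the scFv and yeast of the other type display the target. Pairs that bind mate more often; barcode pairs of the diploids are counted by sequencing. Read counts were normalised to the haploid input and turned into Kd by a linear fit to BCL2-family pairs of known affinity, for each replicate. The assay was run in three technical replicates.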

The parent's light chain CDRs are KSSQSVLYESRNKNSVA, WASTRES, QQYHRLPLS; each variant's own CDRs replace them letter for letter. Affinities are written as log10 Kd with Kd in nM; a lower number is a better binder. Averages over replicates are reported, and they cover detected replicates only. "n.d." marks a missing value. The strain was present, yet no cells mated with the target were sequenced in that replicate, which points to weak or no binding. As a blank, each scFv also met three strains without target: over library AAYL50, 18% of these pairings were detected, typically at 4.19 and seldom below 2.99. Also given: how often the same scFv was detected with the empty control strains, with their mean in brackets. Parent in this assay: reference entry 0.65, copy in this library 1.68.

{"CDR-L1": "GSQQSVLYESRNKNSVA", "CDR-L2": "WASTRES", "CDR-L3": "QGYHRLPLS", "log10 Kd (nM) by replicate": "3.70 n.d. 4.55", "log10 Kd (nM), mean": "4.12", "control signals": "5 of 9 (4.18)"}
{"CDR-L1": "KASQSVLIISRNKNSVA", "CDR-L2": "WASTRES", "CDR-L3": "QQYHRLPLS", "log10 Kd (nM) by replicate": "2.51 2.92 3.92", "log10 Kd (nM), mean": "3.12", "control signals": "5 of 9 (4.30)"}
{"CDR-L1": "KSSQSILYESYNKNSVA", "CDR-L2": "WASTRES", "CDR-L3": "QQYYRLPLS", "log10 Kd (nM) by replicate": "0.72 1.09 0.92", "log10 Kd (nM), mean": "0.91", "control signals": "1 of 9 (3.79)"}
{"CDR-L1": "KNSQSVIDESRNKNSVA", "CDR-L2": "WASTRES", "CDR-L3": "QQYHRLPLS", "log10 Kd (nM) by replicate": "1.03 1.09 1.28", "log10 Kd (nM), mean": "1.13", "control signals": "2 of 9 (3.64)"}
{"CDR-L1": "KSSQSVLYESRNKNSVP", "CDR-L2": "WASKRES", "CDR-L3": "EQYHRLPLS", "log10 Kd (nM) by replicate": "n.d. n.d. n.d.", "log10 Kd (nM), mean": "n.d.", "control signals": "0 of 9"}
{"CDR-L1": "KSSQSVLYESRNKNSHA", "CDR-L2": "WADTRES", "CDR-L3": "QQYHRLILS", "log10 Kd (nM) by replicate": "n.d. n.d. n.d.", "log10 Kd (nM), mean": "n.d.", "control signals": "1 of 9 (4.56)"}
{"CDR-L1": "KSSQSVLYESRNKPSVA", "CDR-L2": "WAMTQES", "CDR-L3": "QQYHRLPLS", "log10 Kd (nM) by replicate": "n.d. n.d. n.d.", "log10 Kd (nM), mean": "n.d.", "control signals": "0 of 9"}
{"CDR-L1": "KSSQSVYYESRNKNSVA", "CDR-L2": "WASTRIS", "CDR-L3": "LQYHRLPLS", "log10 Kd (nM) by replicate": "n.d. n.d. n.d.", "log10 Kd (nM), mean": "n.d.", "control signals": "0 of 9"}
{"CDR-L1": "KSSQKVLYESFNKNSVA", "CDR-L2": "NASTRES", "CDR-L3": "QQYHRLPLS", "log10 Kd (nM) by replicate": "-0.43 -0.02 -0.39", "log10 Kd (nM), mean": "-0.28", "control signals": "2 of 9 (5.02)"}
{"CDR-L1": "KSSQSVLYESRNKNSVA", "CDR-L2": "KASTQES", "CDR-L3": "QQYHRLYLS", "log10 Kd (nM) by replicate": "n.d. n.d. 4.85", "log10 Kd (nM), mean": "4.85", "control signals": "0 of 9"}
{"CDR-L1": "KSSQSPLYESRNKNSVA", "CDR-L2": "WASTRES", "CDR-L3": "QQVHPLPLS", "log10 Kd (nM) by replicate": "2.34 2.31 2.53", "log10 Kd (nM), mean": "2.40", "control signals": "2 of 9 (4.08)"}
{"CDR-L1": "KSEQSVLYESRNENSVA", "CDR-L2": "WASNRES", "CDR-L3": "QQYHRLPLS", "log10 Kd (nM) by replicate": "n.d. n.d. n.d.", "log10 Kd (nM), mean": "n.d.", "control signals": "0 of 9"}
{"CDR-L1": "KSSQSVLYESMNKNSVA", "CDR-L2": "WASTRES", "CDR-L3": "AQYPRLPLS", "log10 Kd (nM) by replicate": "4.23 4.53 n.d.", "log10 Kd (nM), mean": "4.38", "control signals": "1 of 9 (4.75)"}
{"CDR-L1": "KSSQSVLYESRNKNSVL", "CDR-L2": "WASTRES", "CDR-L3": "IVYHRLPLS", "log10 Kd (nM) by replicate": "n.d. n.d. n.d.", "log10 Kd (nM), mean": "n.d.", "control signals": "1 of 9 (3.95)"}
{"CDR-L1": "KSSQSVLYESRNKNSVA", "CDR-L2": "YASTRES", "CDR-L3": "QQYHRLMAS", "log10 Kd (nM) by replicate": "n.d. n.d. n.d.", "log10 Kd (nM), mean": "n.d.", "control signals": "0 of 9"}
{"CDR-L1": "KSSQEVLYESKNKNSVA", "CDR-L2": "WASTRES", "CDR-L3": "QRYHRLPLS", "log10 Kd (nM) by replicate": "3.01 2.22 2.38", "log10 Kd (nM), mean": "2.54", "control signals": "1 of 9 (3.99)"}
{"CDR-L1": "KSPQSVLYESRPKNSVA", "CDR-L2": "WASTRES", "CDR-L3": "MQYHRLPLS", "log10 Kd (nM) by replicate": "1.83 1.83 2.61", "log10 Kd (nM), mean": "2.09", "control signals": "1 of 9 (2.19)"}
{"CDR-L1": "KSSQSVLYESRNKNSVA", "CDR-L2": "WASPRES", "CDR-L3": "QVYHRLPLH", "log10 Kd (nM) by replicate": "n.d. n.d. n.d.", "log10 Kd (nM), mean": "n.d.", "control signals": "3 of 9 (3.49)"}

The closing 2 entries, repeated:

| CDR-L1 | CDR-L2 | CDR-L3 | log10 Kd (nM) by replicate | log10 Kd (nM), mean | control signals |
|---|---|---|---|---|---|
| KSPQSVLYESRPKNSVA | WASTRES | MQYHRLPLS | 1.83 1.83 2.61 | 2.09 | 1 of 9 (2.19) |
| KSSQSVLYESRNKNSVA | WASPRES | QVYHRLPLH | n.d. n.d. n.d. | n.d. | 3 of 9 (3.49) |